Results published in PMC2929268 (The Journal of organic chemistry, 2010).

Sequences of proteins named here, by UniProt entry; tags and fusion partners are left off.
UniProt P32245, whole entry: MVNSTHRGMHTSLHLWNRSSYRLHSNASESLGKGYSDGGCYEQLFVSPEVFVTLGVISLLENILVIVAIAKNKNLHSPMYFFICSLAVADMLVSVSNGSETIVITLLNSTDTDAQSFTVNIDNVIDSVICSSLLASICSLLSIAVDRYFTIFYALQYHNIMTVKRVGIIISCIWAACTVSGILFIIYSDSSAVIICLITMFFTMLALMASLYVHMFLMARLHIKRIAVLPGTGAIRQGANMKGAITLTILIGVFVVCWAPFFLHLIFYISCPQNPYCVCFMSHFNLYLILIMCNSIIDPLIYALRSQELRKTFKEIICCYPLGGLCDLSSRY

Assays:
hMC4R [1] = biological target: T1, hMC4R (Homo sapiens, UniProt P32245); assay: Assay B: europium-based competitive binding assay with probe 18
hMC4R [2] = biological target: T1, hMC4R; assay: Assay A: europium-based competitive binding assay with probe 17

Ki (hMC4R [1]): 760 ± 40 nM
Ki (hMC4R [2]): 1900 ± 550 nM
Structure (SMILES): CC(=O)N[C@@H](Cc1cnc[nH]1)C(=O)N[C@H](Cc1ccccc1)C(=O)N[C@@H](CCCN=C(N)N)C(=O)N[C@@H](Cc1c[nH]c2ccccc12)C(N)=O [MSH(4), Ac-His-DPhe-Arg-Trp-NH2]
